This note sets out measurements from patent US7326684B2, “Peptides for enhancing resistance to microbial infections” (priority 2002, dated 2008).

A short description of the data set: Toxicity by intraperitoneal injection to mice. Particulars: mice (16-18 g).

With `CC(C)C[C@H](NC(=O)[C@H](CS)NC(=O)[C@@H](NC(=O)[C@H](CC(C)C)NC(=O)[C@@H](N)CO)[C@@H](C)O)C(=O)N[C@H](C(=O)N[C@@H](CCCCN)C(=O)NCC(=O)N[C@@H](Cc1ccccc1)C(=O)N[C@@H](Cc1ccc(O)cc1)C(=O)O)C(C)C` [immunorphin], the LD50 (commonly the dose at which mortality reaches 50%) is reported as 2500 mg/kg.
